# Apparent affinities of Ab-14 variants for a coronavirus HR2 peptide

From the AlphaSeq antibody data of Engelhart et al. 2022 (doi:10.1038/s41597-022-01779-4), copy in the FLAb collection.

Antigen: PDVDLGDISGINAS, a 14-residue peptide of the SARS-CoV-2 spike HR2 region.

The variants keep the heavy chain, the linker and the frameworks of Ab-14 (scFv order VH, a (GGGGS)3 linker, VL).
VH: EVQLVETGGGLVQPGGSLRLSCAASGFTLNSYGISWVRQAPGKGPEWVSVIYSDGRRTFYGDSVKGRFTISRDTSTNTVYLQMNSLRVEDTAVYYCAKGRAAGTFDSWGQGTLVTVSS
VL: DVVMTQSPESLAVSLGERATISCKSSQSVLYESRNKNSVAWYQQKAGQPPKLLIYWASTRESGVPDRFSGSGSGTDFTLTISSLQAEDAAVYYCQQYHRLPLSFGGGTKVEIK

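In library AAYL50, one, two or three CDR residues were substituted; doubles and triples were drawn at random. Affinity was read by AlphaSeq, a pooled yeast mating assay with surface-displayed partners. The frequency of each diploid, read from paired DNA barcodes, reflects how well the two displayed proteins bind. Scores were corrected for input abundance and mapped to Kd with protein pairs of known affinity run in the same pool. Each pool was mated in three replicate cultures.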

Positions count from residue 1 of the parent VL; Y31R puts R in place of Y. This list gathers variants with a substitution at Y31 (VL, numbered from residue 1). The Kd shown is the geometric mean over detected replicates; a lower Kd is a better binder. An entry "no signal" has no value in the source: the pair was not observed among the diploids in any replicate. This suggests poor binding but is not conclusive. As a blank, each scFv also met three strains without target: over library AAYL50, 18% of these pairings were detected, typically at 15 µM and seldom below 970 nM. Parent in this assay: reference entry 4.4 nM, copy in this library 48 nM.

* Y31R+E61P+S103M -> 10 µM (2 of 3 replicates)
* Y31H+N37D+S103L -> 1.8 µM (1 of 3 replicates)
* Y31W+Q96W -> 280 nM (2 of 3 replicates)
* S25I+Y31Q+S33F -> 1.0 nM (3 of 3 replicates)
* Y31M+W56Y -> 8.3 nM (3 of 3 replicates)
* Y31S+Q96A+P101I -> 4.3 nM (3 of 3 replicates)
* Y31L+S33G+V39S -> 1.4 mM (1 of 3 replicates)
* Y31N+N37E+R99H -> no signal (0 of 3 replicates)
* Y31M+R99L -> 7.0 nM (3 of 3 replicates)
* S26M+Y31D+S62E -> no signal (0 of 3 replicates)
* Y31R+Q95V+P101C -> no signal (0 of 3 replicates)
* Y31C+S38W -> no signal (0 of 3 replicates)
* L30M+Y31R+S38F -> 2.9 µM (2 of 3 replicates)
* Y31W+V39P+E61G -> no signal (0 of 3 replicates)
* Y31W+K36I+L102A -> 21 nM (3 of 3 replicates)
* S28W+Y31H+A57F -> no signal (0 of 3 replicates)
* Y31H+L100W -> no signal (0 of 3 replicates)
* S26Q+Y31C+L102N -> 880 nM (3 of 3 replicates)
* S26Y+Y31E+N35K -> 16 nM (3 of 3 replicates)
* V29L+Y31H+A40V -> 780 nM (3 of 3 replicates)
* Y31W+N37R+P101V -> 3.3 µM (3 of 3 replicates)
* Y31K+H98D+S103I -> 48 nM (3 of 3 replicates)
* Y31N+R34S+R60G -> 29 nM (3 of 3 replicates)
* Y31E+E32D+P101F -> 1.9 µM (1 of 3 replicates)
* S28H+Y31H+V39T -> no signal (0 of 3 replicates)
* L30V+Y31S+L102C -> 17 nM (3 of 3 replicates)
* Y31P+L100N -> no signal (0 of 3 replicates)
* Y31K -> 2.8 µM (1 of 3 replicates)
* Y31M+W56E+R60L -> 930 pM (3 of 3 replicates)
* Y31Q+S38D+P101R -> no signal (0 of 3 replicates)
* L30C+Y31S+S103C -> 320 µM (3 of 3 replicates)
* Y31N+Y97I -> 40 nM (1 of 3 replicates)
* Y31C+R34I+W56K -> 5.8 nM (3 of 3 replicates)
* L30Q+Y31T+K36I -> 7.1 nM (3 of 3 replicates)
* L30Y+Y31W+K36M -> 15 nM (3 of 3 replicates)
* K24Y+Y31V+Y97F -> 83 nM (3 of 3 replicates)
* Y31N+P101C+L102V -> no signal (0 of 3 replicates)
* Y31Q+L102M+S103F -> 3.2 µM (3 of 3 replicates)
* S26P+Y31E -> 3.0 nM (3 of 3 replicates)
* Y31N+S38P -> 4.7 nM (3 of 3 replicates)
* Y31T+K36E+Q95L -> 1.6 nM (3 of 3 replicates)
* S28N+Y31H+R99K -> 12 nM (3 of 3 replicates)
* Y31T+S33F+S62N -> 6.4 µM (1 of 3 replicates)
* Y31R+H98K+S103Q -> no signal (0 of 3 replicates)
* K24H+Y31S+S33F -> 170 nM (3 of 3 replicates)
* Y31Q+S58T+L100I -> 52 nM (3 of 3 replicates)
* Y31E+A40E+H98N -> no signal (0 of 3 replicates)
* L30S+Y31K -> 4.9 nM (3 of 3 replicates)
* Y31S+K36R+A57Q -> 24 nM (3 of 3 replicates)

Extract of 8 entries:

{"changes": "L30V+Y31S+L102C", "Kd": "17 nM", "seen in": "3/3"}
{"changes": "V29L+Y31H+A40V", "Kd": "780 nM", "seen in": "3/3"}
{"changes": "S26M+Y31D+S62E", "Kd": "no signal", "seen in": "0/3"}
{"changes": "Y31C+S38W", "Kd": "no signal", "seen in": "0/3"}
{"changes": "Y31N+R34S+R60G", "Kd": "29 nM", "seen in": "3/3"}
{"changes": "S26Q+Y31C+L102N", "Kd": "880 nM", "seen in": "3/3"}
{"changes": "Y31Q+L102M+S103F", "Kd": "3.2 µM", "seen in": "3/3"}
{"changes": "Y31C+R34I+W56K", "Kd": "5.8 nM", "seen in": "3/3"}